{"source": "patent US9822179B2", "about": "“Recombinant TNF ligand family member polypeptides with antibody binding domain and uses therefor” (UNIVERSITAT STUTTGART, priority 2011, dated 2017)", "molecules": {"B1": {"name": "SEQ ID NO: 102: EGFR-specific VH-VL-scTRAIL fusion protein with linker L shortened to GGGGS; divalent, dimeric TRAIL fusion protein (protein)", "chain": "MDWTWRVFCLLAVAPGAHSLEASDYKDDDDKGAEVQLVESGGGLVQPGGSLRLSCAASGFSLTNYGVHWVRQAPGKGLEWLGVIWSGGNTDYNTPFTSRFTISRDNSKNTLYLQMNSLRAEDTAVYYCARALTYYDYEFAYWGQGTTVTVSSGGGGSDIQLTQSPSFLSASVGDRVTITCRASQSIGTNIHWYQQKPGKAPKLLIKYASESISGVPSRFSGSGSGTEFTLTISSLQPEDFATYYCQQNNNWPTTFGAGTKLEIKRAAAEFTRGTSEETISTVQEKQQNISPLVRERGPQRVAAHITGTRGRSNTLSSPNSKNEKALGRKINSWESSRSGHSFLSNLHLRNGELVIHEKGFYYIYSQTYFRFQEEIKENTKNDKQMVQYIYKYTSYPDPILLMKSARNSCWSKDAEYGLYSIYQGGIFELKENDRIFVSVTNEHLIDMDHEASFFGAFLVGGGGSGGGSTSEETISTVQEKQQNISPLVRERGPQRVAAHITGTRGRSNTLSSPNSKNEKALGRKINSWESSRSGHSFLSNLHLRNGELVIHEKGFYYIYSQTYFRFQEEIKENTKNDKQMVQYIYKYTSYPDPILLMKSARNSCWSKDAEYGLYSIYQGGIFELKENDRIFVSVTNEHLIDMDHEASFFGAFLVGGGGSGGGSTSEETISTVQEKQQNISPLVRERGPQRVAAHITGTRGRSNTLSSPNSKNEKALGRKINSWESSRSGHSFLSNLHLRNGELVIHEKGFYYIYSQTYFRFQEEIKENTKNDKQMVQYIYKYTSYPDPILLMKSARNSCWSKDAEYGLYSIYQGGIFELKENDRIFVSVTNEHLIDMDHEASFFGAFLVG", "modifications": "VH-VL(EGFR)-scTRAIL fusion protein"}}, "key": {"[1]": {"test_system": "Colo205 xenograft tumor", "test": "Colo205 xenograft tumor model", "conditions": "for cases with macroscopically undetectable tumors: n=12 tumors/group"}, "[2]": {"test_system": "EGFR low/negative HepG2 cells", "test": "Target-independent induction of cell death, HepG2, crystal violet", "type": "cell-based", "experimental": "Cell viability was determined using crystal violet staining. Results from four independent experiments are shown (mean±S.E.M.). (B) Jurkat cells (1×10^5/well) were used for a similar experiment as described in (A). Jurkat cells were not sensitized. Results from three independent experiments are shown (mean±S.E.M.). Viability of Jurkat cells was determined using the MTT assay.\n(§1) As a positive control, cells were killed with 0.25% Triton X-100. Cell death assays with Huh-7 and HepG2 cells were performed in the absence (FIG. 6, Jurkat cells) or presence of Bortezomib (FIG. 7, Huh-7: 250 ng/ml, FIG. 6, HepG2: 500 ng/ml, FIG. 18, Huh-7: 250 ng/ml), Selleck Chemicals, Houston, Tex.). Bortezomib was added 30 min prior incubation with the proapoptotic ligands to sensitize cells for the induction of cell death (FIGS. 6, 7). Alternatively, cells were preincubated for 30 min with the indicated concentrations of TRAIL fusion proteins followed by addition of serial dilutions of Bortezomib (FIG. 8). TRAIL only treated cells are shown in each panel for the applied TRAIL concentration (Bortezomib 0 ng/ml) (FIG. 8). After 16 h incubation, cell viability was determined either by crystal violet staining (Huh-7, HepG2) or the MTT method (Jurkat) (Wuest et al., 2002). In the latter case a lysis buffer consisting of 15% SDS in DMF/H2O (1:1), pH 4.5 (with […]) acetic acid) was used."}, "[3]": {"test_system": "EGFR+ Huh-7 cells", "test": "Binding of scTRAIL fusion proteins to Huh-7 cells, flow cytometry with competition", "conditions": "2 μg/ml fusion protein", "experimental": "(§2) “scFv” represents an anti-EGFR specific antibody fragment used for competition.\n(§3) 5×10^5 cells were suspended in PBA buffer (PBS, 0.025% BSA, 0.02% sodium azide) and incubated for 1 h at 4° C. with the indicated scTRAIL fusion proteins (2 μg/ml). After washing the cells three times with PBA buffer, bound fusion proteins were detected by anti-human TRAIL mAb MAB687 (2.5 μg/ml, R&D Systems) and fluorescein isothiocyanate-labelled rabbit anti-mouse IgG Ab (1:200, Sigma-Aldrich), followed by three washing steps with PBA each. […] Expression of TRAIL receptors was detected by anti-TRAIL R1 mAb MAB347 and anti-TRAIL R2 mAb MAB6311 (4 μg/ml each, R&D Systems) in conjunction with anti-mouse IgG-FITC. EGFR expression was detected by a phycoerythrin-labelled anti-human EGFR mAb sc-101 (4 μg/ml, Santa Cruz Biotech., Santa Cruz, Calif.) (see FIG. 4)."}, "[4]": {"test": "Pharmacokinetics after iv dose of 100 μg/animal", "type": "in vivo", "conditions": "iv dose of 100 μg/animal", "experimental": "Dashed line indicates upper normal level of ALT (35-50 U/L). (B) Mice were sacrificed after 24 h except for pos. control (animals treated with an aggregated FasL fusion protein show phenotypic signs of severe systemic toxicity after 2-4 hrs and die after ˜5 hrs, samples were taken after 4 hrs) and liver biopsies were taken for determination of caspase-3 activity using a specific AMC-coupled peptide substrate."}, "[5]": {"test_system": "EGFR low/neg. HepG2 cells", "test": "Binding of scTRAIL fusion proteins to HepG2 cells, flow cytometry with competition", "conditions": "2 μg/ml fusion protein", "experimental": "as §2, §3"}, "[6]": {"test_system": "Huh-7 cells", "test": "Growth of Huh-7 cells over three days, MTT", "type": "cell-based", "conditions": "with pan-caspase inhibitor (10 μM zVADfmk)", "experimental": "(§4) After 16 h, cell viability was determined using MTT staining (Colo 205) or crystal violet staining (Huh-7) and data were normalized using bortezomib-treated cells as control (mean SEM, n=3). (B) 1×10^4 Colo205 cells per well were grown in 96-well plates using medium with 0.1% FCS. […] (C) 1×10^4 Huh-7 cells per well were grown in 96-well plates and treated with 20 ng/ml bortezomib or with a combination of bortezomib and 10 μM zVADfmk."}, "[7]": {"test_system": "TRAILR+, EGFR negative Jurkat cells", "test": "Binding to Jurkat cells, flow cytometry", "conditions": "data not shown", "experimental": "Therefore, we determined dissociation constants of both fusion proteins on EGFR-positive, DR4+5+NCI-H460 cells under equilibrium binding conditions at 4° C. by indirect immunofluorescence flow cytometry with an anti-TRAIL antibody. […] In principle, the measured KD values reflect cell surface interactions of both functional domains in the fusion protein, the EGFR targeting domain (Component B) and the TRAIL domain, (components A), with their respective receptors."}, "[8]": {"test_system": "caspase-3", "test": "Caspase-3 activity in liver biopsies of treated mice", "type": "in vivo, CD1 mice", "conditions": "after 24 hrs, i.p.", "experimental": "FIG. 9: EGFR specific TRAIL fusion proteins lack hepatotoxic activity. Groups of 3 CD1 mice were treated intraperitonally with indicated fusion proteins or control reagents: negative control: PBS; positive control: aggregated FasL (CD95L) fusion protein. • (A) Plasma samples were prepared after 4 h and 24 h and the activity of alanine aminotransferase (ALT) was assayed using an enzymatic assay (Bioo Scientific, Austin, Tex.). Dashed line indicates upper normal level of ALT (physiologic range in adult human: 35-50 U/L). (B) Mice were sacrificed after 24 h except for positive control (animals treated with an aggregated FasL (CD95L) fusion protein show phenotypic signs of severe systemic toxicity after 2-4 hrs and die after ˜5 hrs, samples were taken after 4 hrs) and liver biopsies were taken for determination of caspase-3 activity using a specific AMC-coupled peptide substrate (Enzo Lifesciences, Lörrach, Germany).\nBlood samples were taken from the tail after 4 h and 24 h and incubated on ice. […] Activity of alanine aminotransaminase was determined by an enzymatic assay (BIOO Scientific, Austin, Tex., USA). […] 10 μg of protein were analyzed by conversion of the fluorogenic substrate Ac-DMQD-AMC (Enzo Life Sciences). Caspase activity in PHH and Huh-7 cells was determined as published by Seidel et al. (Hepatology 2005, 42:113-120). […]"}, "[9]": {"test_system": "EGFR+ Huh-7 hepatocellular carcinoma cells", "test": "EGFR-directed induction of cell death in Huh-7 cells, serial dilutions of protein, crystal violet", "type": "cell-based", "conditions": "250 ng/ml Bortezomib", "experimental": "as §4\nAfter 16 h, cell viability was determined using crystal violet staining. […] The values for SEQ ID NO: 102 were plotted in both panels for comparison.\nas §1"}}}
{"molecule": "B1", "values": [{"measurement": "cases with macroscopically undetectable tumors", "setting": "[1]; 0.45 nmol i.p. x 8, +bortezomib", "value": "11/12"}, {"measurement": "cases with macroscopically undetectable tumors", "setting": "[1]; 0.45 nmol i.p. x 8, w/o bortezomib", "value": "9/12"}, {"measurement": "tumor size and survival", "setting": "[1]; 8 daily i.p. injections of 0.45 nmol, with or without bortezomib", "value": "strong reduction of tumor size and prolonged survival in all animals"}, {"measurement": "influence of excess Cetuximab on apoptosis inducing activity", "setting": "[2]; 70 nM Cetuximab, at least 7-fold excess", "value": "not influenced"}, {"measurement": "increase of bioactivity compared to SEQ ID NO: 96 or SEQ ID NO 97", "setting": "[2]; on all cell lines analysed (target-negative HepG2, Jurkat)", "value": "approximately tenfold"}, {"measurement": "binding to Huh-7 cells, competition by excess of anti-EGFR specific antibody fragment", "setting": "[3]", "value": "partially blockable"}, {"measurement": "Tα1/2", "setting": "[4]", "value": 2, "unit": "h"}, {"measurement": "Tβ1/2", "setting": "[4]", "value": 3, "unit": "h"}, {"measurement": "plasma conc at t=24 h", "setting": "[4]", "value": 100, "unit": "ng/mL"}, {"measurement": "binding to HepG2 cells, competition by anti-EGFR huC225", "setting": "[5]", "value": "weaker and non-blockable binding"}, {"measurement": "growth inhibition when apoptosis is prevented", "setting": "[6]", "value": "only a marginal growth inhibition"}, {"measurement": "binding signal on Jurkat cells", "setting": "[7]", "value": "only very weak signals"}, {"measurement": "caspase-3 activity in liver", "setting": "[8]", "value": "Lack of caspase activation"}, {"measurement": "bioactivity in relation to SEQ ID NO: 96", "setting": "[9]", "value": "tenfold"}]}
